Structures are written as SMILES.

Usually IC50 stands for the midpoint of a concentration-inhibition curve. Higher therefore signals a need for much substance.

A short description of this experiment: Inhibition of human wild type SLACK expressed in CHO cells by Whole-cell automated patch clamp assay. It counts as cell-based.

As to `CCCCN(Cc1ccc(F)cc1)C1=NC2C(C(=O)N(Cc3cccc(OC)c3)C(=O)N2C)N1C` (stereo unspecified), the IC50 turned out to be 700 nM.
